{"source": "paper PMC3403872", "about": "“Contrasting effects of linaclotide and lubiprostone on restitution of epithelial cell barrier properties and cellular homeostasis after exposure to cell stressors” (BMC Pharmacology, 2012)", "system": "T84 cells", "assay": "TER of T84 cells", "conditions": "TNF-α 50 ng/ml, p < 0.0005", "data": [{"substance": "Tumor necrosis factor-α", "values": [{"measurement": "stressor effect of TNF-α on TER", "value": "significantly reduced T84 cell TER"}]}]}
